In general, Ki refers to the dissociation constant of the complex between target and ligand, obtained from inhibition or displacement. Low readings indicate higher affinity, high ones lower affinity.

Amino acid sequences for entries named in this document (tags omitted).
UniProt P21554, whole entry: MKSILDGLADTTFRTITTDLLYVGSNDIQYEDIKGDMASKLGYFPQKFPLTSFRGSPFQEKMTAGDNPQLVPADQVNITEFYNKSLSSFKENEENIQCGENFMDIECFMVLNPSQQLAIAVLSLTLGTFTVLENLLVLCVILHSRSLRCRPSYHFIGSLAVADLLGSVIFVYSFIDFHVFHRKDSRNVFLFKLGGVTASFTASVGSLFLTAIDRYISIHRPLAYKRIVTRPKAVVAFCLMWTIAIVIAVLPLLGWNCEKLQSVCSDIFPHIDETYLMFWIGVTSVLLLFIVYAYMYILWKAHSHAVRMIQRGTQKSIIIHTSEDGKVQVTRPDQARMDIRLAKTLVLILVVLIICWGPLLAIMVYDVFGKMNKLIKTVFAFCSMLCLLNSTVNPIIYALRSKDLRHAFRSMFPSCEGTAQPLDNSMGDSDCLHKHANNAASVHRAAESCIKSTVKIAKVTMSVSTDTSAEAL
UniProt P34972, whole entry: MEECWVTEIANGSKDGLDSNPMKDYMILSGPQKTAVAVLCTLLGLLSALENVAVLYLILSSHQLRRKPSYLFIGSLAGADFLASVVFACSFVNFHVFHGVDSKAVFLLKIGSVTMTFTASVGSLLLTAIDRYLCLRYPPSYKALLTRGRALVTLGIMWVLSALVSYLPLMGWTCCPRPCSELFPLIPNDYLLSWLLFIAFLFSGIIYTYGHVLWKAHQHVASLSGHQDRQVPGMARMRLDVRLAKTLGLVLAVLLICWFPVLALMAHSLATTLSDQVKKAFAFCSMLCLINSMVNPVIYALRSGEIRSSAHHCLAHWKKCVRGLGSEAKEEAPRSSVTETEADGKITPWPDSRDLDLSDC

This is an account of results in US9376380B2 (University of Pittsburgh—Of the Commonwealth System of …, priority 2011, dated 2016).

The target in assay [1] is CB1 receptor (Homo sapiens, UniProt P21554). Briefly: [3H]CP-55,940 radioligand competition binding, CB1. (Loss of bound radioactivity is the signal in a displacement assay; it reports binding, not function.)
The target of assay [2] is CB2 receptor (Homo sapiens, UniProt P34972). Briefly: [3H]CP-55,940 radioligand competition binding, CB2. Set-up: host or cells: cell membrane preparations. The settings on record: for SI: selectivity index for CB2: Ki(CB1)/Ki(CB2) ratio; for Ki: [3H]CP-55,940 displacement.

Take `CCN(CC)c1ccc(CN(C23CC4CC(CC(C4)C2)C3)S(=O)(=O)c2ccc(OC)cc2)cc1` [Compound 59, N-(3r)-Adamantan-1-yl)-N-(4-(diethylamino)benzyl)-4-methoxybenzenesulfonamide]: affinity in assay [1] was put at a Ki of 7300 nM.
In the case of `CCN(CC)c1ccc(CN(c2ccc(C)cc2)S(=O)(=O)c2ccc(Cl)cc2)cc1` [Compound 92, 4-Chloro-N-(4-(diethylamino)benzyl)-N-(p-tolyl)benzenesulfonamide], in assay [2], the “SI: selectivity index for CB2” value turned out to be 137.
In turn, `CCN(CC)c1ccc(CN(c2ccc(Cl)cc2)S(=O)(=O)c2ccccc2)cc1` [Compound 81, N-(4-Chlorophenyl)-N-(4-(diethylamino)benzyl)benzenesulfonamide] returned a Ki in assay [2] of 20 nM.
In the case of `CCN(CC)c1ccc(CN(c2ccc(Cl)cc2)S(=O)(=O)c2cccc(C)c2)cc1` [Compound 86, N-(4-Chlorophenyl)-N-(4-(diethylamino)benzyl)-3-methylbenzenesulfonamide], the “SI: selectivity index for CB2” value in assay [2] worked out at 309.
With `CCCCCCCN(Cc1ccc(N(CC)CC)cc1)S(=O)(=O)c1ccc(C)cc1` [Compound 67, N-(4-(Diethylamino)benzyl)-N-heptyl-4-methylbenzenesulfonamide], affinity in assay [2] was put at a Ki of 2740 nM.
